Experimental data taken from ChEMBL document CHEMBL5058577, “EUbOPEN Chemogenomics Library 2 (Multiplex)” (2022).

What was measured:
Assay type in all cases: toxicity, cell-based
HEK-293T = test: Multiplex assay against HEK293T; conditions: human
U2OS = test: Multiplex assay against U2OS; conditions: human, 0 h, 10 µM, compound concentration 10 uM, replicate 1
Fibroblast = test: Multiplex assay against human fibroblast
[1] = 0 h, 1 µM, compound concentration 1 uM, replicate 1
[2] = 0 h, 1 µM, compound concentration 1 uM, replicate 2
[3] = 0 h, 10 µM, compound concentration 10 uM, replicate 2
[4] = 12 h, 1 µM, compound concentration 1 uM, replicate 1
[5] = 12 h, 10 µM, compound concentration 10 uM, replicate 2
[6] = 24 h, 1 µM, compound concentration 1 uM, replicate 1
[7] = 24 h, 1 µM, compound concentration 1 uM, replicate 2
[8] = 24 h, 10 µM, compound concentration 10 uM, replicate 1
[9] = 24 h, 10 µM, compound concentration 10 uM, replicate 2
[10] = 48 h, 1 µM, compound concentration 1 uM, replicate 1
[11] = 48 h, 1 µM, compound concentration 1 uM, replicate 2
[12] = 48 h, 10 µM, compound concentration 10 uM, replicate 1
[13] = 48 h, 10 µM, compound concentration 10 uM, replicate 2

CNC[C@H](O)c1ccc(O)c(O)c1 [EPINEPHRINE]
Total Cell Count (HEK-293T; [1]): 314
Total Cell Count (HEK-293T; [2]): 249
Total Cell Count (HEK-293T; 0 h, 10 µM, compound concentration 10 uM, replicate 1): 228
Total Cell Count (HEK-293T; [3]): 218
Total Cell Count (HEK-293T; [4]): 475
Total Cell Count (HEK-293T; 12 h, 10 µM, compound concentration 10 uM, replicate 1): 272
Total Cell Count (HEK-293T; [5]): 244
Total Cell Count (HEK-293T; [6]): 648
Total Cell Count (HEK-293T; [7]): 482
Total Cell Count (HEK-293T; [8]): 315
Total Cell Count (HEK-293T; [9]): 293
Total Cell Count (HEK-293T; [10]): 1107
Total Cell Count (HEK-293T; [11]): 678
Total Cell Count (HEK-293T; [12]): 486
Total Cell Count (HEK-293T; [13]): 312
Total Cell Count (U2OS): 175
Total Cell Count (Fibroblast; [1]): 123
Total Cell Count (Fibroblast; [2]): 150
Total Cell Count (Fibroblast; [3]): 146
Total Cell Count (Fibroblast; [4]): 135
Total Cell Count (Fibroblast; 12 h, 1 µM, compound concentration 1 uM, replicate 2): 119
Total Cell Count (Fibroblast; [5]): 142
Total Cell Count (Fibroblast; [6]): 132
Total Cell Count (Fibroblast; [7]): 126
Total Cell Count (Fibroblast; [8]): 169
Total Cell Count (Fibroblast; [9]): 143
Total Cell Count (Fibroblast; [10]): 135
Total Cell Count (Fibroblast; [11]): 126
Total Cell Count (Fibroblast; [12]): 168
Total Cell Count (Fibroblast; [13]): 153
